Where only a bound is given, the exact number is not on record here.

Chains of the proteins cited; added tags and fusions are not shown. Residues count along the entry.
UniProt P11597, 18-493 limits assumed: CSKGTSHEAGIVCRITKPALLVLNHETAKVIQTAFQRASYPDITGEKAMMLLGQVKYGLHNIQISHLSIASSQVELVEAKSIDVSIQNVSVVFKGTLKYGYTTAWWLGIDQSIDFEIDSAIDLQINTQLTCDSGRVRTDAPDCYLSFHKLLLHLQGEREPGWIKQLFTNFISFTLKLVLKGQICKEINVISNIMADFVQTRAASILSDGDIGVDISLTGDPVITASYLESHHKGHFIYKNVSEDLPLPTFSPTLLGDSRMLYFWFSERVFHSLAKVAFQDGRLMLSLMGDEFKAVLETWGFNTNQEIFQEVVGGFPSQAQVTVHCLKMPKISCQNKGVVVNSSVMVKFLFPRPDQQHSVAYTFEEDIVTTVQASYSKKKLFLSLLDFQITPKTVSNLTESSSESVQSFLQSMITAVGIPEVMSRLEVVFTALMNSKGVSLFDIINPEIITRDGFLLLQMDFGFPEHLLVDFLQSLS

This experiment concerns the target CETP (Homo sapiens, UniProt P11597). The experiment can be described thus: CETP activity in vitro ([3H]CE transfer from HDL to LDL). As to conditions: read-out: CEPT Activity Assay IC50.
For `OC(CN(Cc1cccc(C(F)(F)F)c1)c1ccccc1)C(F)(F)F` (stereo not drawn), the IC50 amounted to 15.7 µM. Then `CC(C)N(Cc1cccc(OC(F)(F)F)c1)CC(O)C(F)(F)F` (stereo not drawn), with more than 100 µM; and `OC(CN(Cc1cccc(OC(F)(F)F)c1)Cc1cccc(OC(F)(F)F)c1)C(F)(F)F` (stereo not drawn), with more than 100 µM; and `OC(CN(Cc1cccc(C(F)(F)F)c1)c1cccc(Cl)c1)C(F)(F)F` (stereo not drawn), with 12.5 µM. Turning to `Cc1cccc(CN(CC(O)C(F)(F)F)c2cccc(C(F)(F)F)c2)c1` (stereo not drawn), the IC50 is more than 100 µM.

As to `OC(CN(Cc1cccc(C(F)(F)F)c1)c1cccc(Br)c1)C(F)(F)F` (stereo not drawn), the IC50 was 20.7 µM.

`CCCN(Cc1cccc(OC(F)(F)F)c1)CC(O)C(F)(F)F` (stereo not drawn): the IC50 was more than 100 µM. With `OC(CN(Cc1cccc(OC(F)(F)F)c1)c1ccc(F)c(C(F)(F)F)c1)C(F)(F)F` (stereo not drawn), the half-inhibitory concentration (IC50) amounted to 12 µM. As to `OC(CN(Cc1cccc(OC(F)(F)F)c1)C1CCCC1)C(F)(F)F` (stereo not drawn), the IC50 is more than 100 µM.

These data come from US6924313B1.
